Measured values: patent US20160024487

Legend:
[1] = tested on: Lys(Dnp)-ATNATDLPRIVGG-Lys(Abz)
[2] = tested on: Lys(Dnp)-ATNATDMPRIVGG-Lys(Abz)
[3] = tested on: Lys(Dnp)-ATNATDQPRIVGG-Lys(Abz)
[4] = tested on: Lys(Dnp)-ATNATDRPRIVGG-Lys(Abz)
[5] = tested on: Lys(Dnp)-ATNATDTPRIVGG-Lys(Abz)
[6] = tested on: Lys(Dnp)-ATNATDVPRIVGG-Lys(Abz)
[7] = tested on: Lys(Dnp)-ATNATEGPRIVGG-Lys(Abz)
[8] = tested on: Lys(Dnp)-ATNATEIPRIVGG-Lys(Abz)
[9] = tested on: Lys(Dnp)-ATNATEMPRIVGG-Lys(Abz)
[10] = tested on: Lys(Dnp)-ATNATERPRIVGG-Lys(Abz)
[11] = tested on: Lys(Dnp)-ATNATESPRIVGG-Lys(Abz)
[12] = tested on: Lys(Dnp)-ATNATEYPRIVGG-Lys(Abz)
[13] = tested on: Lys(Dnp)-ATNATGDPRIVGG-Lys(Abz)
[14] = tested on: Lys(Dnp)-ATNATGEPRIVGG-Lys(Abz)
[15] = tested on: Lys(Dnp)-ATNATHIPRIVGG-Lys(Abz)
[16] = tested on: Lys(Dnp)-ATNATHLPRIVGG-Lys(Abz)
[17] = tested on: Lys(Dnp)-ATNATHMPRIVGG-Lys(Abz)
[18] = tested on: Lys(Dnp)-ATNATHVPRIVGG-Lys(Abz)
[19] = tested on: Lys(Dnp)-ATNATKEPRIVGG-Lys(Abz)
[20] = tested on: Lys(Dnp)-ATNATKIPRIVGG-Lys(Abz)
[21] = tested on: Lys(Dnp)-ATNATKKPRIVGG-Lys(Abz)
[22] = tested on: Lys(Dnp)-ATNATKLPRIVGG-Lys(Abz)
[23] = tested on: Lys(Dnp)-ATNATKNPRIVGG-Lys(Abz)
[24] = tested on: Lys(Dnp)-ATNATKRPRIVGG-Lys(Abz)
[25] = tested on: Lys(Dnp)-ATNATKSPRIVGG-Lys(Abz)
[26] = tested on: Lys(Dnp)-ATNATKVPRIVGG-Lys(Abz)
[27] = tested on: Lys(Dnp)-ATNATKWPRIVGG-Lys(Abz)
[28] = tested on: Lys(Dnp)-ATNATMDPRIVGG-Lys(Abz)
[29] = tested on: Lys(Dnp)-ATNATNAPRIVGG-Lys(Abz)
[30] = tested on: Lys(Dnp)-ATNATNEPRIVGG-Lys(Abz)
[31] = tested on: Lys(Dnp)-ATNATNIPRIVGG-Lys(Abz)
[32] = tested on: Lys(Dnp)-ATNATNLPRIVGG-Lys(Abz)
[33] = tested on: Lys(Dnp)-ATNATNNPRIVGG-Lys(Abz)
[34] = tested on: Lys(Dnp)-ATNATNRPRIVGG-Lys(Abz)
[35] = tested on: Lys(Dnp)-ATNATNWPRIVGG-Lys(Abz)
[36] = tested on: Lys(Dnp)-ATNATQAPRIVGG-Lys(Abz)
[37] = tested on: Lys(Dnp)-ATNATQGPRIVGG-Lys(Abz)
[38] = tested on: Lys(Dnp)-ATNATRAPRIVGG-Lys(Abz)
[39] = tested on: Lys(Dnp)-ATNATRDPRIVGG-Lys(Abz)
[40] = tested on: Lys(Dnp)-ATNATRFPRIVGG-Lys(Abz)
[41] = tested on: Lys(Dnp)-ATNATRHPRIVGG-Lys(Abz)
[42] = tested on: Lys(Dnp)-ATNATRKPRIVGG-Lys(Abz)
[43] = tested on: Lys(Dnp)-ATNATRLPRIVGG-Lys(Abz)
[44] = tested on: Lys(Dnp)-ATNATRMPRIVGG-Lys(Abz)
[45] = tested on: Lys(Dnp)-ATNATRNPRIVGG-Lys(Abz)
[46] = tested on: Lys(Dnp)-ATNATRSPRIVGG-Lys(Abz)
[47] = tested on: Lys(Dnp)-ATNATRTPRIVGG-Lys(Abz)
[48] = tested on: Lys(Dnp)-ATNATRVPRIVGG-Lys(Abz)
[49] = tested on: Lys(Dnp)-ATNATRYPRIVGG-Lys(Abz)
[50] = tested on: Lys(Dnp)-ATNATSEPRIVGG-Lys(Abz)
[51] = tested on: Lys(Dnp)-ATNATSLPRIVGG-Lys(Abz)
[52] = tested on: Lys(Dnp)-ATNATSNPRIVGG-Lys(Abz)
[53] = tested on: Lys(Dnp)-ATNATTPPRIVGG-Lys(Abz)
[54] = tested on: Lys(Dnp)-ATNATVPPRIVGG-Lys(Abz)
[55] = tested on: Lys(Dnp)-ATNATWLPRIVGG-Lys(Abz)
[56] = tested on: Lys(Dnp)-ATNATYLPRIVGG-Lys(Abz)

Substance: Human plasma purified α-thrombin
- kcat/KM [1]: 210 M⁻¹ s⁻¹
- kcat/KM [2]: 140 M⁻¹ s⁻¹
- kcat/KM [3]: 160 M⁻¹ s⁻¹
- kcat/KM [4]: 340 M⁻¹ s⁻¹
- kcat/KM [5]: 250 M⁻¹ s⁻¹
- kcat/KM [6]: 460 M⁻¹ s⁻¹
- kcat/KM [7]: 98 M⁻¹ s⁻¹
- kcat/KM [8]: 460 M⁻¹ s⁻¹
- kcat/KM [9]: 150 M⁻¹ s⁻¹
- kcat/KM [10]: 1100 M⁻¹ s⁻¹
- kcat/KM [11]: 160 M⁻¹ s⁻¹
- kcat/KM [12]: 430 M⁻¹ s⁻¹
- kcat/KM [13]: 540 M⁻¹ s⁻¹
- kcat/KM [14]: 510 M⁻¹ s⁻¹
- kcat/KM [15]: 820 M⁻¹ s⁻¹
- kcat/KM [16]: 470 M⁻¹ s⁻¹
- kcat/KM [17]: 1300 M⁻¹ s⁻¹
- kcat/KM [18]: 540 M⁻¹ s⁻¹
- kcat/KM [19]: 270 M⁻¹ s⁻¹
- kcat/KM [20]: 990 M⁻¹ s⁻¹
- kcat/KM [21]: 520 M⁻¹ s⁻¹
- kcat/KM [22]: 880 M⁻¹ s⁻¹
- kcat/KM [23]: 370 M⁻¹ s⁻¹
- kcat/KM [24]: 780 M⁻¹ s⁻¹
- kcat/KM [25]: 470 M⁻¹ s⁻¹
- kcat/KM [26]: 590 M⁻¹ s⁻¹
- kcat/KM [27]: 1100 M⁻¹ s⁻¹
- kcat/KM [28]: 1600 M⁻¹ s⁻¹
- kcat/KM [29]: 430 M⁻¹ s⁻¹
- kcat/KM [30]: 150 M⁻¹ s⁻¹
- kcat/KM [31]: 640 M⁻¹ s⁻¹
- kcat/KM [32]: 650 M⁻¹ s⁻¹
- kcat/KM [33]: 290 M⁻¹ s⁻¹
- kcat/KM [34]: 1400 M⁻¹ s⁻¹
- kcat/KM [35]: 1200 M⁻¹ s⁻¹
- kcat/KM [36]: 1800 M⁻¹ s⁻¹
- kcat/KM [37]: 1100 M⁻¹ s⁻¹
- kcat/KM [38]: 670 M⁻¹ s⁻¹
- kcat/KM [39]: 3600 M⁻¹ s⁻¹
- kcat/KM [40]: 770 M⁻¹ s⁻¹
- kcat/KM [41]: 960 M⁻¹ s⁻¹
- kcat/KM [42]: 590 M⁻¹ s⁻¹
- kcat/KM [43]: 920 M⁻¹ s⁻¹
- kcat/KM [44]: 790 M⁻¹ s⁻¹
- kcat/KM [45]: 670 M⁻¹ s⁻¹
- kcat/KM [46]: 660 M⁻¹ s⁻¹
- kcat/KM [47]: 640 M⁻¹ s⁻¹
- kcat/KM [48]: 590 M⁻¹ s⁻¹
- kcat/KM [49]: 690 M⁻¹ s⁻¹
- kcat/KM [50]: 390 M⁻¹ s⁻¹
- kcat/KM [51]: 790 M⁻¹ s⁻¹
- kcat/KM [52]: 540 M⁻¹ s⁻¹
- kcat/KM [53]: 820 M⁻¹ s⁻¹
- kcat/KM [54]: 95 M⁻¹ s⁻¹
- kcat/KM [55]: 1800 M⁻¹ s⁻¹
- kcat/KM [56]: 2100 M⁻¹ s⁻¹

Substance: Human plasma purified alpha-thrombin
- FIIa kcat/KM [1]: 210 M⁻¹ s⁻¹
- Specificity Ratio (FIIa/FXa) [1]: 8
- FIIa kcat/KM [2]: 140 M⁻¹ s⁻¹
- Specificity Ratio (FIIa/FXa) [2]: 12
- FIIa kcat/KM [3]: 160 M⁻¹ s⁻¹
- Specificity Ratio (FIIa/FXa) [3]: 75
- FIIa kcat/KM [4]: 340 M⁻¹ s⁻¹
- Specificity Ratio (FIIa/FXa) [4]: 2
- FIIa kcat/KM [5]: 250 M⁻¹ s⁻¹
- Specificity Ratio (FIIa/FXa) [5]: 38
- FIIa kcat/KM [6]: 460 M⁻¹ s⁻¹
- Specificity Ratio (FIIa/FXa) [6]: 30
- FIIa kcat/KM [7]: 98 M⁻¹ s⁻¹
- Specificity Ratio (FIIa/FXa) [7]: 5
- FIIa kcat/KM [8]: 460 M⁻¹ s⁻¹
- Specificity Ratio (FIIa/FXa) [8]: 8
- FIIa kcat/KM [9]: 150 M⁻¹ s⁻¹
- Specificity Ratio (FIIa/FXa) [9]: 12
- FIIa kcat/KM [10]: 1100 M⁻¹ s⁻¹
- Specificity Ratio (FIIa/FXa) [10]: 4
- FIIa kcat/KM [11]: 160 M⁻¹ s⁻¹
- Specificity Ratio (FIIa/FXa) [11]: 30
- FIIa kcat/KM [12]: 430 M⁻¹ s⁻¹
- Specificity Ratio (FIIa/FXa) [12]: 29
- FIIa kcat/KM [13]: 540 M⁻¹ s⁻¹
- Specificity Ratio (FIIa/FXa) [13]: 7
- FIIa kcat/KM [14]: 510 M⁻¹ s⁻¹
- Specificity Ratio (FIIa/FXa) [14]: 6
- FIIa kcat/KM [15]: 820 M⁻¹ s⁻¹
- Specificity Ratio (FIIa/FXa) [15]: 10
- FIIa kcat/KM [16]: 470 M⁻¹ s⁻¹
- Specificity Ratio (FIIa/FXa) [16]: 3
- FIIa kcat/KM [17]: 1300 M⁻¹ s⁻¹
- Specificity Ratio (FIIa/FXa) [17]: 5
- FIIa kcat/KM [18]: 540 M⁻¹ s⁻¹
- Specificity Ratio (FIIa/FXa) [18]: 14
- FIIa kcat/KM [19]: 270 M⁻¹ s⁻¹
- Specificity Ratio (FIIa/FXa) [19]: 4
- FIIa kcat/KM [20]: 990 M⁻¹ s⁻¹
- Specificity Ratio (FIIa/FXa) [20]: 16
- FIIa kcat/KM [21]: 520 M⁻¹ s⁻¹
- Specificity Ratio (FIIa/FXa) [21]: 21
- FIIa kcat/KM [22]: 880 M⁻¹ s⁻¹
- Specificity Ratio (FIIa/FXa) [22]: 10
- FIIa kcat/KM [23]: 370 M⁻¹ s⁻¹
- Specificity Ratio (FIIa/FXa) [23]: 6
- FIIa kcat/KM [24]: 780 M⁻¹ s⁻¹
- Specificity Ratio (FIIa/FXa) [24]: 9
- FIIa kcat/KM [25]: 470 M⁻¹ s⁻¹
- Specificity Ratio (FIIa/FXa) [25]: 6
- FIIa kcat/KM [26]: 590 M⁻¹ s⁻¹
- Specificity Ratio (FIIa/FXa) [26]: 12
- FIIa kcat/KM [27]: 1100 M⁻¹ s⁻¹
- Specificity Ratio (FIIa/FXa) [27]: 8
- FIIa kcat/KM [28]: 1600 M⁻¹ s⁻¹
- Specificity Ratio (FIIa/FXa) [28]: 3
- FIIa kcat/KM [29]: 430 M⁻¹ s⁻¹
- Specificity Ratio (FIIa/FXa) [29]: 25
- FIIa kcat/KM [30]: 150 M⁻¹ s⁻¹
- Specificity Ratio (FIIa/FXa) [30]: 7
- FIIa kcat/KM [31]: 640 M⁻¹ s⁻¹
- Specificity Ratio (FIIa/FXa) [31]: 17
- FIIa kcat/KM [32]: 650 M⁻¹ s⁻¹
- Specificity Ratio (FIIa/FXa) [32]: 6
- FIIa kcat/KM [33]: 290 M⁻¹ s⁻¹
- Specificity Ratio (FIIa/FXa) [33]: 19
- FIIa kcat/KM [34]: 1400 M⁻¹ s⁻¹
- Specificity Ratio (FIIa/FXa) [34]: 7
- FIIa kcat/KM [35]: 1200 M⁻¹ s⁻¹
- Specificity Ratio (FIIa/FXa) [35]: 13
- FIIa kcat/KM [36]: 1800 M⁻¹ s⁻¹
- Specificity Ratio (FIIa/FXa) [36]: 5
- FIIa kcat/KM [37]: 1100 M⁻¹ s⁻¹
- Specificity Ratio (FIIa/FXa) [37]: 7
- FIIa kcat/KM [38]: 670 M⁻¹ s⁻¹
- FIIa kcat/KM [39]: 3600 M⁻¹ s⁻¹
- Specificity Ratio (FIIa/FXa) [39]: 3
- FIIa kcat/KM [40]: 770 M⁻¹ s⁻¹
- Specificity Ratio (FIIa/FXa) [40]: 1
- FIIa kcat/KM [41]: 960 M⁻¹ s⁻¹
- FIIa kcat/KM [42]: 590 M⁻¹ s⁻¹
- Specificity Ratio (FIIa/FXa) [42]: 1
- FIIa kcat/KM [43]: 920 M⁻¹ s⁻¹
- Specificity Ratio (FIIa/FXa) [43]: 1
- FIIa kcat/KM [44]: 790 M⁻¹ s⁻¹
- FIIa kcat/KM [45]: 670 M⁻¹ s⁻¹
- FIIa kcat/KM [46]: 660 M⁻¹ s⁻¹
- FIIa kcat/KM [47]: 640 M⁻¹ s⁻¹
- FIIa kcat/KM [48]: 590 M⁻¹ s⁻¹
- Specificity Ratio (FIIa/FXa) [48]: 1
- FIIa kcat/KM [49]: 690 M⁻¹ s⁻¹
- Specificity Ratio (FIIa/FXa) [49]: 1
- FIIa kcat/KM [50]: 390 M⁻¹ s⁻¹
- Specificity Ratio (FIIa/FXa) [50]: 17
- FIIa kcat/KM [51]: 790 M⁻¹ s⁻¹
- Specificity Ratio (FIIa/FXa) [51]: 10
- FIIa kcat/KM [52]: 540 M⁻¹ s⁻¹
- Specificity Ratio (FIIa/FXa) [52]: 23
- FIIa kcat/KM [53]: 820 M⁻¹ s⁻¹
- Specificity Ratio (FIIa/FXa) [53]: 11
- FIIa kcat/KM [54]: 95 M⁻¹ s⁻¹
- Specificity Ratio (FIIa/FXa) [54]: 15
- FIIa kcat/KM [55]: 1800 M⁻¹ s⁻¹
- Specificity Ratio (FIIa/FXa) [55]: 4
- FIIa kcat/KM [56]: 2100 M⁻¹ s⁻¹
- Specificity Ratio (FIIa/FXa) [56]: 6
